{"sequences": {"note": "Chains of the proteins cited; added tags and fusions are not shown.", "UniProt P42336, whole entry": "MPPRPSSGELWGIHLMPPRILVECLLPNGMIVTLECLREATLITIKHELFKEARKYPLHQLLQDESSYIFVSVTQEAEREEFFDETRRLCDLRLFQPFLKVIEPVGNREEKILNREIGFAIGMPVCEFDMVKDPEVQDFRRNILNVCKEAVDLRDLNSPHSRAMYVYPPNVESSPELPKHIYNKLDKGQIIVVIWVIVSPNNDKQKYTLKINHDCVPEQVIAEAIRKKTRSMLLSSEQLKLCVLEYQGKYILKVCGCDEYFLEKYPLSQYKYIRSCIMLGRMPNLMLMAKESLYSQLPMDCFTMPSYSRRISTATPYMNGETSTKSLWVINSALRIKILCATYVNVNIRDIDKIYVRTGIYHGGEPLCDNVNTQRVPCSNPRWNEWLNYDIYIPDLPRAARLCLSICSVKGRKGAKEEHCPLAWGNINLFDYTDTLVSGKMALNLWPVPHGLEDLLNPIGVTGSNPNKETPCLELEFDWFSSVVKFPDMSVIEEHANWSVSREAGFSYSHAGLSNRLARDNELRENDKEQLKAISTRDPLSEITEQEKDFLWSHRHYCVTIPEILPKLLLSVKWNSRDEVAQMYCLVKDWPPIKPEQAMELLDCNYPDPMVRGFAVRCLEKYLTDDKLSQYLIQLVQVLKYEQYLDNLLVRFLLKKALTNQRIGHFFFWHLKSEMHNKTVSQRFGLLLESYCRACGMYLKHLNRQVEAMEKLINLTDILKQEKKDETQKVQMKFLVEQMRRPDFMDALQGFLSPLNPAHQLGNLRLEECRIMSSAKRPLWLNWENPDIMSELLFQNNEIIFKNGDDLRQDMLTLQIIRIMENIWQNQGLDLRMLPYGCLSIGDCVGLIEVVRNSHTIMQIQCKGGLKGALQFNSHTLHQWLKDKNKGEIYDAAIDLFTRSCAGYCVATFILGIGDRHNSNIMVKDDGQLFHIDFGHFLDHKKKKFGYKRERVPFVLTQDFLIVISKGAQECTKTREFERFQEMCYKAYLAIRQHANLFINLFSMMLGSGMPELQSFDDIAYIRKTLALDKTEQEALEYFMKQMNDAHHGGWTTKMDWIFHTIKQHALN"}, "source": "patent US9206201B2", "about": "“Boronic acid bearing liphagane compounds as inhibitors of P13K-α and/or β” (COUNCIL OF SCIENTIFIC & INDUSTRIAL RESEARCH, priority 2012, dated 2015)", "key": {"PI3Kα": {"biological_target": "PI3Kα (Homo sapiens (Human), UniProt P42336)", "test": "PI3K inhibition assay (PI3 Kinase activity/inhibitor assay kit), PI3Kα", "type": "biochemical", "conditions": "read-out: IC50 against PI3Kα", "procedure": "PI3K inhibition assay (PI3K Assay (Emmanuelle M, Huang […] et al. Targeting Protein Translation in Human Non-Small Cell Lung Cancer via Combined MEK and Mammalian Target of Rapamycin Suppression. Cancer Res 67:(23). (2007).) was carried out by PI3 Kinase activity/inhibitor assay kit, where PI3 kinase reaction was set up in Glutathione-coated strips/plate for inhibitor reaction. Kinase and inhibitors were pre-incubated for 10 minutes prior to the addition of PIP2 substrate. 5 μL of 5× kinase reaction buffer were added in each well followed by the further addition of 5 μL/well of PIP2 substrate. Then distilled H2O was added to each well so as to make up a final volume of 25 μL/well. Incubation was done at rt for 1 hour which was followed by washing the wells 3 times with 200 μL of 1×TBST per well and then 2 times with 200 μL of IX TBS per well. Then 100 μL of the Substrate TMB per well was added and then to keep for colour development in the dark for 5-20 minutes. However, appearance of the blue color to avoid over-development were monitored. 100 μL of the stop solution per well was used to stop the reaction. Readings were recorded at 450 nm. The IC50 value of a drug measures the effectiveness of a compound in inhibiting biological or biochemical function. […]"}, "HCT-115": {"test_system": "HCT-115", "test": "MTT cytotoxic assay, colon (HCT-115) cell line", "conditions": "read-out: cell based IC50 (MTT), 48 h"}, "MCF-7": {"test_system": "MCF-7", "test": "MTT cytotoxic assay, breast (MCF-7) cell line", "conditions": "read-out: cell based IC50 (MTT), 48 h"}, "[1]": {"test_system": "caco-2, colon human cancer cell line", "test": "Cell cycle analysis by flow cytometry (propidium iodide)", "conditions": "for percentage of sub-G0 cells: 24 h"}, "caco-2": {"test_system": "caco-2", "test": "MTT cytotoxic assay, colon (caco-2) cell line", "conditions": "read-out: cell based IC50 (MTT), 48 h"}, "[2]": {"test_system": "caco-2 colon human cancer cell line", "test": "Annexin-V apoptotic assay by flow cytometry", "conditions": "48 h"}}}
{"smiles": "COc1cc2c3c(oc2c(B(O)O)c1OC)C(C)CC[C@@H]1C(C)(C)CCC[C@@]31C", "note": "(relative stereo)", "values": [{"measurement": "IC50", "setting": "PI3Kα", "result": 0.102, "unit": "µM"}, {"measurement": "IC50", "setting": "HCT-115", "result": 3.7, "unit": "µM"}, {"measurement": "IC50", "setting": "MCF-7", "result": 3.1, "unit": "µM"}, {"measurement": "percentage of sub-G0 cells", "setting": "[1]; caco-2, 1 μM", "result": 62.5, "unit": "%"}, {"measurement": "percentage of sub-G0 cells", "setting": "[1]; caco-2, 5 μM", "result": 64.3, "unit": "%"}, {"measurement": "percentage of sub-G0 cells", "setting": "[1]; caco-2, 7 μM", "result": 65.6, "unit": "%"}, {"measurement": "percentage of sub-G0 cells", "setting": "[1]; caco-2, 9 μM", "result": 70.2, "unit": "%"}, {"measurement": "cell cycle at G2/M phase", "setting": "[1]; caco-2, 24 h", "result": "not affected"}, {"measurement": "IC50", "setting": "caco-2", "result": 5.6, "unit": "µM"}, {"measurement": "cell population in early apoptotic phase", "setting": "[2]; caco-2, 1 μM", "result": 21.9, "unit": "%"}, {"measurement": "percentage of late apoptotic cells", "setting": "[2]; caco-2, 1 μM", "result": 36.3, "unit": "%"}, {"measurement": "cell population in early apoptotic phase", "setting": "[2]; caco-2, 5 μM", "result": 23.4, "unit": "%"}, {"measurement": "percentage of late apoptotic cells", "setting": "[2]; caco-2, 5 μM", "result": 34.8, "unit": "%"}, {"measurement": "cell population in early apoptotic phase", "setting": "[2]; caco-2, 7 μM", "result": 21.4, "unit": "%"}, {"measurement": "percentage of late apoptotic cells", "setting": "[2]; caco-2, 7 μM", "result": 38.5, "unit": "%"}, {"measurement": "cell population in early apoptotic phase", "setting": "[2]; caco-2, 9 μM", "result": 14.7, "unit": "%"}, {"measurement": "percentage of late apoptotic cells", "setting": "[2]; caco-2, 9 μM", "result": 56.8, "unit": "%"}]}
